Data from patent publication US20210353613A1, “TREATMENT OF NEUROLOGICAL DISEASE” (Aclipse One Inc., priority 2018, published 2021).

Test system: mouse motor neuron (MN) survival
Assay: Co-culture of patient iAstrocytes with mouse Hb9-GFP motor neurons: MN survival
Format: cell-based
Details: FIG. 4; 10uM; 3 days after administration; compared to vehicle (DMSO); sALS, SOD1, C9orf72 iAstrocytes
Protocol: Induced astrocytes from control or ALS patients were used in a co-culture assay to determine their effect on mouse motor neuron (MN) survival. Mouse embryonic stem cell-derived motor neurons expressing green fluorescence protein (GFP) under the control of the HB9 promoter were sorted and added to iAstrocytes from patients and controls. […] The survival of mouse MNs was monitored on Day 1 and 3 with confocal image acquisition.
The MN survival on Day 3 was evaluated as a percentage of survived MN cells observed on Day 1.

## Nc1nc2ccc(OC(F)(F)F)cc2s1 [riluzole, reference compound]
  mouse Hb9GFP+ motor neuron rescue: percentage of motor neuron survival: increase in percentage of motor neuron survival
